Measured values from patent US8946287B2, “Chemotherapeutic flavonoids, and syntheses thereof” (Purdue Research Foundation, priority 2006, dated 2015).

By UniProt entry, the sequences of proteins in these tests, tags left out. Where a name states a change or a piece, a line headed by the entry shows the natural chain unless it says otherwise.
UniProt P11511: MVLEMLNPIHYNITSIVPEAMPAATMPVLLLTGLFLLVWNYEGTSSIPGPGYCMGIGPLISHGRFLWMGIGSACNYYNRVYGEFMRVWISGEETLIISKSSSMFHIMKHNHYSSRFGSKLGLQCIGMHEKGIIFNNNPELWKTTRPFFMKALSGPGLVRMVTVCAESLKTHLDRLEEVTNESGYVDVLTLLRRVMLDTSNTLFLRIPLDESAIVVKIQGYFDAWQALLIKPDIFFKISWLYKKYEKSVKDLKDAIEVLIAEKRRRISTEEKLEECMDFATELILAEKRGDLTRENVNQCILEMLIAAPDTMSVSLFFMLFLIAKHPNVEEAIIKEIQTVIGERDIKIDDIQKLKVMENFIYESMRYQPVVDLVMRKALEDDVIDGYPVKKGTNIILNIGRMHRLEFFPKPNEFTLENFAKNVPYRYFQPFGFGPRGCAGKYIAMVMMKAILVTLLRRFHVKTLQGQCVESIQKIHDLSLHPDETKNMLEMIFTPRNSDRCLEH

Target: aromatase (CYP19, BD Biosciences) (Homo sapiens, UniProt P11511)
Assay: Assay for inhibition of aromatase activity (fluorescence, dibenzylfluorescein)

For CC(C)=CCc1cc(C2CC(=O)c3ccc(O)cc3O2)ccc1O (racemic) [8b, 7-Hydroxy-2-(4-hydroxy-3-(3-methylbut-2-enyl)phenyl)chroman-4-one], the IC50 was 40.9 ± 11.3 µM.
